# Experimental data as given in PubChem BioAssay AID602151 (Vanderbilt Specialized Chemistry Center, 2011).
# Amino acid sequences for entries named in this document (tags omitted). A change or cut given only in a name is not applied to a line headed by its entry.
# UniProt Q13393: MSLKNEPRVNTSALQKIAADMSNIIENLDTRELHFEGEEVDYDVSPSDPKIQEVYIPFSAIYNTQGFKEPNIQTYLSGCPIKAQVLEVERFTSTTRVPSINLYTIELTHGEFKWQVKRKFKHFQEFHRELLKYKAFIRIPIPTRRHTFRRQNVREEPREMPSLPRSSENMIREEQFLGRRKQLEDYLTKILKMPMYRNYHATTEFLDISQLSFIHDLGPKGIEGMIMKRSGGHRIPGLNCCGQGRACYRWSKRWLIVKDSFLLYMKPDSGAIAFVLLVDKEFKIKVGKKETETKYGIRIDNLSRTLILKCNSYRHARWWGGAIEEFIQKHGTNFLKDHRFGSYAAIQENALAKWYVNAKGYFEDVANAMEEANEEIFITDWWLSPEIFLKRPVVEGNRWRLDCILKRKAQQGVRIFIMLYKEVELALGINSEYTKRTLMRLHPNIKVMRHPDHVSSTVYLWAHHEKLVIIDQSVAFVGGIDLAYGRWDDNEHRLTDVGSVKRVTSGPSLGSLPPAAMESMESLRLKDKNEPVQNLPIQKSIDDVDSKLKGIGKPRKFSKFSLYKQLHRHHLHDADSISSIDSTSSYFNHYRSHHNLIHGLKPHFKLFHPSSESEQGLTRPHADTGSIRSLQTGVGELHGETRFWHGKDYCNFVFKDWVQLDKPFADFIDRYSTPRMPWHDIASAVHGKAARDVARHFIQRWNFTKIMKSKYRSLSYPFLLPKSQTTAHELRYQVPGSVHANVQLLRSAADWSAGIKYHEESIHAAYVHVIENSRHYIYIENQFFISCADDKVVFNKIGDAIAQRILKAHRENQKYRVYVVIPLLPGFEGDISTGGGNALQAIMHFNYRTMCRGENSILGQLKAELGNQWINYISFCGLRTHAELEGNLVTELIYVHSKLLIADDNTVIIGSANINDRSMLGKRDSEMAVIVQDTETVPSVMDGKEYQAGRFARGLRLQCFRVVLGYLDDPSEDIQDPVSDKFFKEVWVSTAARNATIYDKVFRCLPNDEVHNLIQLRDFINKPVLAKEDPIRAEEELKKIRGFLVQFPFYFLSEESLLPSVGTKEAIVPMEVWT
# Target: Phospholipase D1 (Homo sapiens) (UniProt Q13393)
# Test: cellular phospholipase D1 inhibition IC50 – cell-based, dose response (AID 602151)
# Settings: cellular PLD1 activity assay
compound,measurement,value
O=C(NCCN1CCC2(CC1)C(=O)NCN2c1cccc(F)c1)c1ccc(F)cc1,IC50,12 µM
